Measured values from the supplement of paper PMC9938120.

How the values were obtained:
Experiment in all cases: drug sensitivity score (DSS3, normalised partial AUC of % inhibition dose-response) (DSS (score)); higher = more sensitive (stronger inhibition of viability); extreme values may be limits of the assay
FMOC04 = patient-derived high-grade serous ovarian cancer cells; conditions: 72 h; library: FO5A; assay format: 2D, 384-well, CellTiter-Glo
Summary of the method: (§1)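 Cells were dispensed onto 384-well flat clear-bottom plates already holding compounds at five concentrations over a 10,000-fold range, using patient-derived ovarian cancer cells at passage under 10. Incubation lasted 72 h at 37 °C in 5% CO2, after which CellTiter-Glo viability data were processed in Breeze. Higher drug sensitivity scores, each a partial area under the percent-inhibition dose-response curve divided by the log of the upper asymptote, mean more sensitive cells.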

FMOC22 = patient-derived mucinous ovarian cancer cells; conditions: 72 h; library: FO5A; assay format: 2D, 384-well, CellTiter-Glo
Summary of the method: as §1

FMOC27 = patient-derived low-grade serous ovarian cancer cells; conditions: 72 h; library: FO5A; assay format: 2D, 384-well, CellTiter-Glo
Summary of the method: as §1

FMOC14 = patient-derived high-grade serous ovarian cancer cells; conditions: 72 h; library: FO5A; assay format: 2D, 384-well, CellTiter-Glo
Summary of the method: as §1

FMOC25_2 = patient-derived low-grade serous ovarian cancer cells; conditions: 72 h; library: FO5A; assay format: 2D, 384-well, CellTiter-Glo
Summary of the method: as §1

FMOC11 = patient-derived high-grade serous ovarian cancer cells; conditions: 72 h; library: FO5A; assay format: 2D, 384-well, CellTiter-Glo
Summary of the method: as §1

FMOC03 = patient-derived mucinous ovarian cancer cells; conditions: 72 h; library: FO5A; assay format: 2D, 384-well, CellTiter-Glo
Summary of the method: as §1

FMOC24 = patient-derived high-grade serous ovarian cancer cells; conditions: 72 h; library: FO5A; assay format: 2D, 384-well, CellTiter-Glo
Summary of the method: as §1

FMOC28 = patient-derived low-grade serous ovarian cancer cells; conditions: 72 h; library: FO5A; assay format: 2D, 384-well, CellTiter-Glo
Summary of the method: as §1

FMOC09 = patient-derived high-grade serous ovarian cancer cells; conditions: 72 h; library: FO5A; assay format: 2D, 384-well, CellTiter-Glo
Summary of the method: as §1

FMOC06 = patient-derived mucinous ovarian cancer cells; conditions: 72 h; library: FO5A; assay format: 2D, 384-well, CellTiter-Glo
Summary of the method: as §1

FMOC02_3 = patient-derived low-grade serous ovarian cancer cells; conditions: 72 h; library: FO5A; assay format: 2D, 384-well, CellTiter-Glo
Summary of the method: as §1

FMOC02_2 = patient-derived low-grade serous ovarian cancer cells; conditions: 72 h; library: FO5A; assay format: 2D, 384-well, CellTiter-Glo
Summary of the method: as §1

FMOC02_1 = patient-derived low-grade serous ovarian cancer cells; conditions: 72 h; library: FO5A; assay format: 2D, 384-well, CellTiter-Glo
Summary of the method: as §1

FMOC25_1 = patient-derived low-grade serous ovarian cancer cells; conditions: 72 h; library: FO4B; assay format: 2D, 384-well, CellTiter-Glo
Summary of the method: as §1

FMOC17 = patient-derived low-grade serous ovarian cancer cells; conditions: 72 h; library: FO5A; assay format: 2D, 384-well, CellTiter-Glo
Summary of the method: as §1

Which results are given for `NCc1ccc(OCCCc2sc(-c3ccc4c(c3)/C(=N/Nc3nc5ccccc5s3)CCC4)nc2C(=O)O)cc1` [WEHI-539]?
drug sensitivity score (FMOC04): 0; drug sensitivity score (FMOC22): 0; drug sensitivity score (FMOC27): 6.9; drug sensitivity score (FMOC14): 1.5; drug sensitivity score (FMOC25_2): 0.1; drug sensitivity score (FMOC11): 3.1; drug sensitivity score (FMOC03): 1.9; drug sensitivity score (FMOC24): 3.7; drug sensitivity score (FMOC28): 3; drug sensitivity score (FMOC09): 0; drug sensitivity score (FMOC06): 3; drug sensitivity score (FMOC02_3): 0.5; drug sensitivity score (FMOC02_2): 6.4; drug sensitivity score (FMOC02_1): 5.1; drug sensitivity score (FMOC25_1): 4.2; drug sensitivity score (FMOC17): 0.4
